{"source": "patent US20210283217A1", "about": "“NEUROMODULATING COMPOSITIONS AND RELATED THERAPEUTIC METHODS FOR THE TREATMENT OF INFLAMMATORY AND AUTOIMMUNE DISEASES” (Flagship Pioneering Innovations V, Inc., priority 2016, published 2021)", "tested_on": "primary human T cells", "test": "T cell activation and cytokine secretion assay (LEGENDplex)", "format": "cell-based", "procedure": "Peripheral blood mononuclear cells (PBMCs) were isolated from whole blood by ficoll density separation. Briefly, blood was diluted 1:2 with 0.5 mM EDTA solution in PBS, loaded onto a Ficoll-filled Leucosep tube (Greiner Bio-One), and centrifuged for 20 minutes at 1000×g. After centrifugation, the leukocyte/PBMC layer on top of the separation medium was collected and sequentially washed three times with 0.5 mM EDTA solution in PBS. T cells were isolated from PBMCs using magnetic bead-based separation following vendor specification, e.g., Biolegend MojoSort Human CD4/CD8 Naïve T Cell Isolation Kit protocol. In brief, the PBMCs were labeled with biotinylated antibodies against cell surface receptors for cells not in the population of interest. The labeled cells are then captured by streptavidin-coated magnetic beads and removed by magnetic incubation. The uncaptured cells that flow through the magnetic separation are predominantly comprised of the population of interest, in this instance CD3+ T cells. T cells were stained with a 5 μM solution of Tag-it Violet™ dye (BioLegend) for 20 minutes protected from light. […] Supernatants were collected at 24, 48, and 72 hrs and cytokine secretion was analyzed by flow cytometry using a LEGENDplex assay (BioLegend). […] The beads were then stained and the captured cytokine composition assessed by flow cytometry."}
{"smiles": "CCCN1CCC[C@@H]2Cc3n[nH]cc3C[C@H]21", "note": "[quinpirole]", "values": [{"measurement": "T cell production of pro-survival cytokine IL-2", "result": "increase"}]}
